Results published in patent publication US12606546B2, “Small molecule inhibitors of calcium channel activity and uses thereof” (Arizona Board of Regents on Behalf of the University of …, priority 2020, dated 2026).

System: high voltage activated calcium channels
Assay: Fura-2AM calcium imaging, 90 mM KCl-evoked Ca2+ influx in DRG neurons

## C[C@@H](c1ccccc1)n1nnnc1[C@H](c1ccsc1)N1CCC(n2c(=O)[nH]c3ccccc32)CC1 [5bl, 1-{1-[(S)-{1-[(1S)-1-phenylethyl]-1H-1,2,3,4-tetrazol-5-yl}(thiophen-3-yl)methyl]piperidin-4-yl}-2,3-dihydro-1H-1,3-benzodiazol-2-one]
  inhibition of Ca2+ influx when DRGs were depolarized with 90 mM KCl: < 25%
